The results in this text go back to BindingDB's records for patent US20240109853 (Shanghai Yao Yuan Biotechnology Co., 2024).

Amino acid sequences for entries named in this document (tags omitted). A change or cut given only in a name is not applied to a line headed by its entry.
UniProt Q96QP1: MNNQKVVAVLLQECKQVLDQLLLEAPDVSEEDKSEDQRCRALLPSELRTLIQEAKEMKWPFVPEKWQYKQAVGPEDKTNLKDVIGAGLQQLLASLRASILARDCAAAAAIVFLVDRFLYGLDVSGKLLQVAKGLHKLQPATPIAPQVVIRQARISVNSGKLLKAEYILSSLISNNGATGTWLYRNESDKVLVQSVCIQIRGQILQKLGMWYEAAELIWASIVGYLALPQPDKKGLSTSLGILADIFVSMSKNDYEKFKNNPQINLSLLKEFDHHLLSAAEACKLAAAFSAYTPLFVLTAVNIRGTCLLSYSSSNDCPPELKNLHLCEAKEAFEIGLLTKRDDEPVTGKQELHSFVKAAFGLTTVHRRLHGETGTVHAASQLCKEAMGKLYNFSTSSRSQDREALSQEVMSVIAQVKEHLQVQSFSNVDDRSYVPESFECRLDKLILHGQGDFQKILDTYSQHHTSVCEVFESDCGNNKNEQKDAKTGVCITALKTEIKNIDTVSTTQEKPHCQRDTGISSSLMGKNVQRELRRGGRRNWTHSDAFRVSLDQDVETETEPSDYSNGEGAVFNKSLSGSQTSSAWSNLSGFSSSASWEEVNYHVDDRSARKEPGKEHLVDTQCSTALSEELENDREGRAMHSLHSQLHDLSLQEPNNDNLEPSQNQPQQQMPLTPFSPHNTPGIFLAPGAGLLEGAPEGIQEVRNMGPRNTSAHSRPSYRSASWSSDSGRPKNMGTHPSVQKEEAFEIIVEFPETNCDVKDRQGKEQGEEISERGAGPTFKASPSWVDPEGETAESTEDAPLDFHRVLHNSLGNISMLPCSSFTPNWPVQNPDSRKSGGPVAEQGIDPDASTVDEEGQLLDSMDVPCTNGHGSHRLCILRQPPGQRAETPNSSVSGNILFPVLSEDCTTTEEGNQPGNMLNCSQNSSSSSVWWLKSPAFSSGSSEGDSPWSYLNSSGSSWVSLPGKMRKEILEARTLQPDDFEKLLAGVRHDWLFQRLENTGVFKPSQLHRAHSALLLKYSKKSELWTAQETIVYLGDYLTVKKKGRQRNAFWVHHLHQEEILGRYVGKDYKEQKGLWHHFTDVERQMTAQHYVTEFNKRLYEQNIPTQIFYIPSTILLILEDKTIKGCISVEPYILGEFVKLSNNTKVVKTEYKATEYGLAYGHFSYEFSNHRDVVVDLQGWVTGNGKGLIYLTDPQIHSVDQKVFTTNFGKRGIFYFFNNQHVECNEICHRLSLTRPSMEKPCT

This assay has as its target Alpha-protein kinase 1 (Homo sapiens, UniProt Q96QP1). Nature of the assay: ALPK1 In Vitro Kinase Assay. On the procedure:
ALPK1 kinase activity was measured in an in vitro assay using ADP-Heptose as the ALPK1 ligand and activator of its kinase activity and TIFA protein as the ALPK1 phosphorylation substrate. Since phosphorylated TIFA proteins oligomerize, Homogeneous Time-Resolved Fluorescence (HTRF) was used to measure protein: protein interaction between HA-tagged TIFA proteins as an indicator of TIFA phosphorylation. In brief, dose-response studies were performed with […] in 384-well assay plates. Each well contained 0.1 mg TIFA, ALPK1 (2 nM final concentration in reaction mixture) and kinase buffer (100 mM of HEPES pH 7.4, 4 mM DTT, 40 mM MgCl2, 20 mM of β-Glycerol phosphate disodium salt, 0.4 mM of Na3VO4, 0.16 mg/mL). Titrations of the test compounds were prepared in dimethylsulphoxide (DMSO). The reaction was initiated by addition of ATP and ADP-Heptose.

Each structure is given as a SMILES string.

On to `C#CC(C)(c1ccc(Br)cc1)c1csc(NC(C)=O)n1` (stereo unspecified) [US20240109853, Compound D004], for which the IC50 came out at 18 nM.

The IC50 is the concentration needed to halve the response being measured. A higher IC50 goes with weaker potency in that assay.
